Assay [1] can be described thus: qHTS assay to identify small molecule antagonists of the estrogen receptor alpha (ER-alpha) signaling pathway using the BG1 cell line - cell viability counter screen (AID 743081).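 Note: compound given together with 17beta-estradiol as the ER stimulus; nearly all actives have a fitted effect of over 45% in size.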
The target of assay [2] is Aromatase (Homo sapiens) (UniProt P11511). Put plainly: qHTS assay to identify aromatase inhibitors (AID 743083). Note: nearly all actives have a fitted effect of over 55% in size. Note: potency is the fitted concentration of half-maximal effect.
Assay [3] is described as follows: qHTS assay to identify aromatase inhibitors - cell viability counter screen (AID 743084).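 Note: cells stimulated with testosterone during compound exposure; nearly all actives have a fitted effect of over 55% in size.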 Note: potency is the fitted concentration of half-maximal effect.
For assay [4], the target named is Aryl hydrocarbon receptor (Homo sapiens) (UniProt P35869). Put plainly: qHTS assay to identify small molecule that activate the aryl hydrocarbon receptor (AhR) signaling pathway (AID 743085;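 note: HG2L7.5c1 human HepG2 liver cells with stably integrated DRE-driven firefly reporter; nearly all actives have a fitted effect of over 15% in size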). (In qHTS, concentration-response curves come from the screen itself.)
Assay [5] can be described thus: qHTS assay to identify small molecule that activate the aryl hydrocarbon receptor (AhR) signaling pathway - cell viability counter screen (AID 743086). Note: nearly all actives have a fitted effect of over 45% in size. Note: potency is the fitted concentration of half-maximal effect. The gist of the method: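 HepG2-AhR-luc (HG2L7.5c1) cells, 4000/well, treated 24 h at 37 C with compound; viability measured as CellTiter-Fluor fluorescence after 30 min in the same wells as the luciferase read.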

Sequences of proteins named here, by UniProt entry; tags and fusion partners are left off. A change or cut given only in a name is not applied to a line headed by its entry.
UniProt P11511: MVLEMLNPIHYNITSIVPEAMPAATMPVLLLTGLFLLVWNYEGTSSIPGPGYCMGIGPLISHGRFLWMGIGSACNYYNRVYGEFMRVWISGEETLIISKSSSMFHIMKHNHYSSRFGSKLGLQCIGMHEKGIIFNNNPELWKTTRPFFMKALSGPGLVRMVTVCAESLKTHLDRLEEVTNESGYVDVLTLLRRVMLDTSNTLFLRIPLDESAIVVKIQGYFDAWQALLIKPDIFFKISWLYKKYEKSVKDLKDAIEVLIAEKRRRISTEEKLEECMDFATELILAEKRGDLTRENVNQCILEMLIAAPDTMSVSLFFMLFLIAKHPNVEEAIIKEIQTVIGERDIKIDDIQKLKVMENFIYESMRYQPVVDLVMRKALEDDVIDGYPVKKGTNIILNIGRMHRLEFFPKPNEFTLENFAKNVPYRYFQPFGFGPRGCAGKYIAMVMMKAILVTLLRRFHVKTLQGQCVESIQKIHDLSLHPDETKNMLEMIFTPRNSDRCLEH
UniProt P35869: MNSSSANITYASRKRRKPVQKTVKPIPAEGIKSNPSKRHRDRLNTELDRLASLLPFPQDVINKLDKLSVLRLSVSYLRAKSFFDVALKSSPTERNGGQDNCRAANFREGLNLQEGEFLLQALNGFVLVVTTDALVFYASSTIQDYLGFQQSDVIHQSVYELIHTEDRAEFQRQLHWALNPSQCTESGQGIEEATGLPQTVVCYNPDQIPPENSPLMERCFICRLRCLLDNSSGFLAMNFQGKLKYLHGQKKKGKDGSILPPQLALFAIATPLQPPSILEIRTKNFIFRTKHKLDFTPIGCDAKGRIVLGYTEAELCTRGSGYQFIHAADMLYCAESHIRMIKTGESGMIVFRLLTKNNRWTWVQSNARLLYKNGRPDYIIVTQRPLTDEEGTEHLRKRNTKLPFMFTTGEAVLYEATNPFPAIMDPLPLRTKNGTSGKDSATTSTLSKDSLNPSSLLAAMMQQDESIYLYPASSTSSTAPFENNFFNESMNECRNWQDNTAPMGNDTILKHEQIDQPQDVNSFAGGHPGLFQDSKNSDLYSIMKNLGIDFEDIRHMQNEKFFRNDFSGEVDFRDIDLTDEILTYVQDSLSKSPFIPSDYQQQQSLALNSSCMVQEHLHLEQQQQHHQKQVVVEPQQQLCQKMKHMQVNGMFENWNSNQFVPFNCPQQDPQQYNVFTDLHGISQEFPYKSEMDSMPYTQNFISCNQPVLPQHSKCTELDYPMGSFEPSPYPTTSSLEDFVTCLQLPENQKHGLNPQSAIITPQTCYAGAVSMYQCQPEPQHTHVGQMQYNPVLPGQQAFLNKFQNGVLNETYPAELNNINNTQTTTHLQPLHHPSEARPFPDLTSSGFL
UniProt P37231: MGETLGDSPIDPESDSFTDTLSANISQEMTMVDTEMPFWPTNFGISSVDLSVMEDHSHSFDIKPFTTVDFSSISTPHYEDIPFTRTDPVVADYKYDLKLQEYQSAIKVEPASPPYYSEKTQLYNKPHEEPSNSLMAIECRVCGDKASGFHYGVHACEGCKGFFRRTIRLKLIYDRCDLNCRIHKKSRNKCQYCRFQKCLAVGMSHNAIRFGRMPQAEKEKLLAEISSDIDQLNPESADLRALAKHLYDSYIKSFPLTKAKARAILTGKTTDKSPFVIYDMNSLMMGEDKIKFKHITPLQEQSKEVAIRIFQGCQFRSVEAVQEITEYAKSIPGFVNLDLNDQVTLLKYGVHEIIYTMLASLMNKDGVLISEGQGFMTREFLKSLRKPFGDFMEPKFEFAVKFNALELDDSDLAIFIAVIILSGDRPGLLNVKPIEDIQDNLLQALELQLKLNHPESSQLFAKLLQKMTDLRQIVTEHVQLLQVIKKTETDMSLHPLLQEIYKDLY
UniProt Q03181: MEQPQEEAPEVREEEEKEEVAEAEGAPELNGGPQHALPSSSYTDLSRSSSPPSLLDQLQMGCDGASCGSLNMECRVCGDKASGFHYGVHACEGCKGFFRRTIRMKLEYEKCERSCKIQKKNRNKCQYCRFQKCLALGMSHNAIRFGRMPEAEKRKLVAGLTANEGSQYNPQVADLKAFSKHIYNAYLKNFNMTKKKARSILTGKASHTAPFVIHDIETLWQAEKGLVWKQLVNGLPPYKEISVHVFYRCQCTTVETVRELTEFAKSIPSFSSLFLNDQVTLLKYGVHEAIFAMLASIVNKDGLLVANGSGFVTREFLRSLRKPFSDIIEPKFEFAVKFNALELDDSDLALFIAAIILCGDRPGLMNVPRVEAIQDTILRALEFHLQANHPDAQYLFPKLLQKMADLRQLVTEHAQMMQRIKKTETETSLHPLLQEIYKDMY
UniProt P11473: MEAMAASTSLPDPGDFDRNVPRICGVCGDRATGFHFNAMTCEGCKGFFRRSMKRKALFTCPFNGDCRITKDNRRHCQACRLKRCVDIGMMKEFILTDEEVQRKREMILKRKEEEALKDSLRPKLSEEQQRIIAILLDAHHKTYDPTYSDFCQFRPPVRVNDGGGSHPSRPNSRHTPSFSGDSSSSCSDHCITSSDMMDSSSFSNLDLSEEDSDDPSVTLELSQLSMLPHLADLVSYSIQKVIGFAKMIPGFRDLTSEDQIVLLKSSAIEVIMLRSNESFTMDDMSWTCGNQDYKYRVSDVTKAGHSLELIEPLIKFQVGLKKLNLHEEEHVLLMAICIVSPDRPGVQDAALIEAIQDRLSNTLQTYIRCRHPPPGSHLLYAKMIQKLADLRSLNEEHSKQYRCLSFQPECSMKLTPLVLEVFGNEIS
UniProt Q96RI1: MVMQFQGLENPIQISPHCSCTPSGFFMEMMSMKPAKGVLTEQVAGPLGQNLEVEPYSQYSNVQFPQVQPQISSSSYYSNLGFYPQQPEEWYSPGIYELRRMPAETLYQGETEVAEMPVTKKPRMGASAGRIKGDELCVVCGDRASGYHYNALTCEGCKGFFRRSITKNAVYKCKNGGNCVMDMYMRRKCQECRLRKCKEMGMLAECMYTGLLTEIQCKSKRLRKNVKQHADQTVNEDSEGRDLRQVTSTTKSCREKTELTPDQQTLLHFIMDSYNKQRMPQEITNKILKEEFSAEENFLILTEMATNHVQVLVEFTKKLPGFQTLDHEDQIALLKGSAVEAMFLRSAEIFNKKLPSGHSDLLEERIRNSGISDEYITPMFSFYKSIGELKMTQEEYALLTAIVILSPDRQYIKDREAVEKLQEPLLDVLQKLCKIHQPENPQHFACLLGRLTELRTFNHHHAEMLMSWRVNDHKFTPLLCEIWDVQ

Assay [6] has as its target Peroxisome proliferator-activated receptor gamma (Homo sapiens) (UniProt P37231). Put plainly: qHTS assay to identify small molecule agonists of the peroxisome proliferator-activated receptor gamma (PPARg) signaling pathway (AID 743094; active = well fitted activation curve with a large enough effect in the signal ratio in the repeat runs, not every such curve was filed as active; the % refers to the signal ratio). The conditions noted are these: HEK293H PPARg-UAS-bla, beta-lactamase FRET ratio, 17 h; at 57 µM (top of the series) unless noted. The gist of the method:
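GeneBLAzer PPARg UAS-bla HEK293H cells carrying a stably integrated beta-lactamase reporter were pre-incubated 5 h at 37C, then exposed to compounds in DMSO for 17 h at 37C; LiveBLAzer B/G FRET substrate was added for 1 h at room temperature and fluorescence read.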

For assay [7] the target is unchanged. Briefly: qHTS assay to identify small molecule antagonists of the peroxisome proliferator-activated receptor gamma (PPARg) signaling pathway (AID 743191; calls by dose curve; note: nearly all actives have a fitted effect of over 30% in size). Particulars: HEK293H PPARg-UAS-bla, beta-lactamase ratio, antagonist, 17 h; at 62.6 µM (top of the series) unless noted.
Assay [8] can be described thus: qHTS assay to identify small molecule antagonists of the peroxisome proliferator-activated receptor gamma (PPARg) signaling pathway - cell viability counter screen (AID 743194). Note: nearly all actives have a fitted effect of over 55% in size. Note: potency is the fitted concentration of half-maximal effect. The gist of the method: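 Cytotoxicity counter screen in PPARg-bla HEK293H cells, same wells as reporter assay. Compounds plus 50 nM rosiglitazone (final) for 17 h at 37 C, then viability read by CellTiter-Glo luminescence.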

The nature of assay [9]: qHTS assay for small molecule agonists of the antioxidant response element (ARE) signaling pathway (AID 743202; active = well fitted activation curve with a large enough effect in the signal ratio in the repeat runs, not every such curve was filed as active; the % refers to the signal ratio; note: potency is the fitted concentration of half-maximal effect). The gist of the method:
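ARE-bla HepG2 cells (beta-lactamase reporter under the antioxidant response element), plated 5 hours, then exposed to compounds 16 hours at 37 C. LiveBLAzer B/G FRET substrate added for 2 hours at room temperature; fluorescence intensity read.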

A short description of assay [10]: qHTS assay for small molecule agonists of the antioxidant response element (ARE) signaling pathway - cell viability counter screen (AID 743203; calls by dose curve; note: nearly all actives have a fitted effect of over 55% in size; note: potency is the fitted concentration of half-maximal effect). Put shortly:
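CellSensor ARE-bla HepG2 cells, 2,000 per well, rested 5 hrs at 37C/5% CO2, then exposed to compound in DMSO for 16 hrs; viability read as CellTiter-Glo luminescence after 30 min at room temperature, in the reporter wells.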

A short description of assay [11]: qHTS assay for small molecule activators of the heat shock response signaling pathway - cell viability counter screen (AID 743209). Note: nearly all actives have a fitted effect of over 50% in size. Note: potency is the fitted concentration of half-maximal effect. The gist of the method:
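CellSensor HSE-bla HeLa cells, plated overnight at 37 C/5% CO2, were exposed to compounds in DMSO for 5 h at 37 C. Viability was then read in the same wells by CellTiter-Glo luminescence after 30 min at room temperature.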

Assay [12] can be described thus: qHTS assay for small molecule activators of the heat shock response signaling pathway (AID 743210; active = well fitted activation curve with a large enough effect in the signal ratio in the repeat runs, with a control signal flat, not every such curve was filed as active; the % refers to the signal ratio). The conditions noted are these: HeLa HSE-bla reporter, beta-lactamase ratio, 5 h; at 62.6 µM (top of the series) unless noted. The gist of the method:
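HSE-bla HeLa cells (beta-lactamase reporter under heat shock response elements), plated overnight, then exposed to compounds 5 h at 37 C; LiveBLAzer B/G FRET substrate added, 2.5 h at room temperature, fluorescence intensity read.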

The nature of assay [13]: qHTS assay to identify small molecule agonists of the peroxisome proliferator-activated receptor delta (PPARd) signaling pathway - cell viability counter screen (AID 743211). Note: nearly all actives have a fitted effect of over 55% in size. Note: potency is the fitted concentration of half-maximal effect. The gist of the method:
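PPARd-bla HEK293H cells (UAS-beta-lactamase reporter) were treated with compounds for 17 h at 37 C. Viability was then read in the same wells by CellTiter-Glo luminescence after 30 min at room temperature.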

Assay [14] addresses Peroxisome proliferator-activated receptor delta (Homo sapiens) (UniProt Q03181). Put plainly: qHTS assay to identify small molecule agonists of the peroxisome proliferator-activated receptor delta (PPARd) signaling pathway (AID 743212; calls by dose curve). The conditions noted are these: HEK293H PPARd-UAS-bla, beta-lactamase FRET ratio, 17 h; at 62.6 µM (top of the series). The gist of the method:
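GeneBLAzer UAS-bla HEK293H cells carrying a PPARδ construct were exposed to compounds at 37 °C. Beta-lactamase activity was read by FRET fluorescence after 2 h at room temperature with LiveBLAzer B/G substrate.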

The target is the same in assay [15]. Briefly: qHTS assay to identify small molecule antagonists of the peroxisome proliferator-activated receptor delta (PPARd) signaling pathway (AID 743215; active = well fitted inhibition curve with a large enough effect in the signal ratio in the repeat runs, not every such curve was filed as active; the % refers to the signal ratio;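 note: cells stimulated with agonist L165041 at 300 nM final during compound exposure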). Particulars: HEK293H PPARd-UAS-bla, beta-lactamase FRET ratio, antagonist, 17 h; at 62 µM (top of the series). The gist of the method: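 PPARd UAS-bla HEK293H cells were pre-incubated 5 h at 37 C, then given test compounds in DMSO plus agonist L165041 (300 nM final). After 17 h at 37 C, beta-lactamase FRET substrate was added; fluorescence read after 2 h at room temperature.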

Assay [16] is described as follows: qHTS assay to identify small molecule agonists of the farnesoid-X-receptor (FXR) signaling pathway - cell viability counter screen (AID 743218). Note: nearly all actives have a fitted effect of over 45% in size. Put shortly:
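FXR-UAS-bla HEK 293T cells, plated 5 h at 37 C, were exposed to compounds for 16 h at 37 C. CellTiter-Glo was then added to the same wells as the bla readout; luminescence read after 30 min at room temperature.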

Assay [17] is described as follows: qHTS assay to identify small molecule antagonists of the farnesoid-X-receptor (FXR) signaling pathway - cell viability counter screen (AID 743221; active = well fitted cell-killing curve with a large enough effect in the repeat runs, not every such curve was filed as active; note: nearly all actives have a fitted effect of over 50% in size).
Assay [18] addresses Vitamin D3 receptor (Homo sapiens) (UniProt P11473). Briefly: qHTS assay to identify small molecule agonists of the vitamin D receptor (VDR) signaling pathway (AID 743222; calls by dose curve). Particulars: HEK293T VDR-UAS-bla, beta-lactamase FRET ratio, 16 h; at 63.5 µM (top of the series) unless noted. The gist of the method:
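VDR-bla cells were plated 4 h at 37C/5% CO2, then exposed to compounds in DMSO for 16 h. After LiveBLAzer B/G FRET substrate addition and 2 h at room temperature, beta-lactamase reporter fluorescence was read.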

For assay [19], the target named is Bile acid receptor (Homo sapiens) (UniProt Q96RI1). Briefly: qHTS assay to identify small molecule antagonists of the farnesoid-X-receptor (FXR) signaling pathway (AID 743217; active = well fitted inhibition curve with a large enough effect in the signal ratio in the repeat runs, not every such curve was filed as active; the % refers to the signal ratio). The conditions noted are these: HEK293T FXR-UAS-bla, beta-lactamase ratio, CDCA-stimulated, 16 h; at 62.6 µM (top of the series) unless noted. Put shortly:
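FXR-UAS-bla HEK 293T cells pre-incubated 5 h at 37 °C, then exposed to compounds with chenodeoxycholic acid (50 uM final) for 16 h at 37 °C. Beta-lactamase reporter read by LiveBLAzer B/G FRET substrate fluorescence after 2 h at room temperature.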

Assay [20] has the same target. Briefly: qHTS assay to identify small molecule agonists of the farnesoid-X-receptor (FXR) signaling pathway (AID 743220; active = well fitted activation curve with a large enough effect in the signal ratio in the repeat runs, not every such curve was filed as active; the % refers to the signal ratio). Particulars: HEK293T FXR-UAS-bla, beta-lactamase FRET ratio, 16 h; at 81.1 µM (top of the series).

The list shows a part of the results, in another mix than the full data. Results filed as inconclusive are left out. Active and inactive are the calls of the source. Unless noted, calls come from the whole dose curve; as a rule, active = well fitted curve in the direction sought with a large enough effect in the repeat runs; inconclusive = weak or mixed curves; inactive = no such curve, though single readings can be large; an effect the other way counts as inactive or inconclusive.
% is set by controls: 0 for no effect and ±100 for the full control effect.

In the case of `O=P(Cl)(Oc1ccccc1)Oc1ccccc1`, the Potency entry in [1], in assay [2], in assay [3], in [4], in assay [5] and in assay [8] was “inactive” throughout. In addition, the Potency result in assay [9], in assay [10], in [11], in assay [13], in [16] and in [17] was “inactive” each time. Besides, the activation is inactive: -2.08% in assay [6], inactive: -0.0858% in [12], inactive: 1.46% in [14] and inactive: 0.203% in assay [18]. Besides, the ratio activity, negative = inhibition in [7] is inactive: -2.86%; in [15], inactive: 11.5%.

Consider `CCOP(=S)(CC)Sc1ccccc1` (stereo not given), for which the Potency entry in assay [1], in [3], in assay [4], in [5], in assay [8] and in assay [9] was “inactive” each time. Besides, the Potency result in [10], in assay [11], in assay [13], in [16] and in assay [17] was “inactive” in each case. Further, the figures for the activation in [6], in [12] and in assay [18] were inactive: -0.613%, inactive: 2.09% and inactive: 1.35%, respectively.

On to `O=[As]c1ccccc1` (stereo not given), for which the Potency is active: 306 nM in [2]; active: 433 nM in [3]; active: 2170 nM in [5]; active: 490 nM in [8]; active: 344 nM in assay [10]; active: 776 nM in assay [11]. Besides, the Potency in assay [13] was active: 616 nM. The Potency entry in assay [4] is “inactive”. Moreover, the activation in [18] is inactive: -0.784%.

In the case of `Cc1cc([N+](=O)[O-])c(O)c([N+](=O)[O-])c1`, the Potency result in assay [2], in [4], in assay [8], in assay [10], in assay [11] and in [13] was “inactive” in each case. The Potency entry in assay [17] was “inactive”. The results for the activation in [6] and in assay [12] were inactive: -7.45% [at 78.9 µM] and inactive: -0.769% [at 81.1 µM], respectively. Besides, in [7], the ratio activity, negative = inhibition is inactive: -19% [at 81.1 µM]. For the same molecule, the Potency in assay [9] was active: 9790 nM.

For the molecule `COP(=S)(Cl)OC`, the Potency result in assay [1], in assay [2], in [3], in assay [4], in assay [5] and in assay [8] was “inactive” each time. Also, the Potency entry in assay [9], in assay [10], in assay [11], in assay [13], in [16] and in [17] was “inactive” in each case. In addition, the activation is inactive: 10.1% [at 78.9 µM] in assay [6], inactive: 3.98% [at 81.1 µM] in [12], inactive: 2.49% in assay [20] and inactive: 1.15% [at 81.1 µM] in [18]. Also, the activity change, negative = inhibition in assay [19] is inactive: 5.46% [at 81.1 µM].

In the case of `CC(C)CCCCCCCOP(OCCCCCCCC(C)C)Oc1ccccc1`, the Potency result in [1], in [2], in [3], in assay [4], in [5] and in [8] was “inactive” each time. In addition, the Potency entry in assay [9], in [10], in assay [11], in assay [13] and in [17] was “inactive” each time. Moreover, the activation is inactive: -8.88% in assay [6], inactive: 0.647% in assay [12] and inactive: -1.7% in assay [14]. In [7], the ratio activity, negative = inhibition was inactive: -14.5%.

As to `N#CSc1ccc([N+](=O)[O-])cc1[N+](=O)[O-]`, the Potency entry in assay [4] was “inactive”.

(Values after PubChem BioAssay (Tox21).)
